The target in the test is T1, Adrenergic 1A (Homo sapiens, UniProt P35348).
T1 sequence (P35348 1-466): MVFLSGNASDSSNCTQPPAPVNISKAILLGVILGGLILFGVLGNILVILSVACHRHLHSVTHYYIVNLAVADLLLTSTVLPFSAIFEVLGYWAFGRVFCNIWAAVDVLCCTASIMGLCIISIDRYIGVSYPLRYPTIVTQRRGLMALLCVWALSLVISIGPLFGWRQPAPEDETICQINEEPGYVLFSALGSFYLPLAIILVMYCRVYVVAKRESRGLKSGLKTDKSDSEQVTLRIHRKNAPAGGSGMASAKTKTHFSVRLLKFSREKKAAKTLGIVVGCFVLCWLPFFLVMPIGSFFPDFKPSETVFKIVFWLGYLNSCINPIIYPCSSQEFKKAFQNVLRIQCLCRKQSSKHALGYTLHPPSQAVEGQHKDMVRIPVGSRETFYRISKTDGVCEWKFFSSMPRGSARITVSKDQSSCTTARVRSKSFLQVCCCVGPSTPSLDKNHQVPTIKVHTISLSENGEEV
Description: biochemical.

This is an account of results in US11185532B2, “Methods of treating pruritus” (Clexio Biosciences Ltd., priority 2019, dated 2021).

One may read the inhibition as the drop in the measured response relative to a control, in per cent.

`Clc1cccc(Cl)c1N=C1NCCN1` [clonidine] registered an inhibition at 10 µM of 91%.
